# Measured affinities in a library of Ab-14 light chain variants

The measurements come from Engelhart et al. 2022 (doi:10.1038/s41597-022-01779-4) through the FLAb antibody collection.

Target peptide (SARS-CoV-2 spike, HR2 region): PDVDLGDISGINAS

Parent: Ab-14, a human scFv built as VH, a (GGGGS)3 linker, VL. Only the CDRs of the light chain vary.
VH: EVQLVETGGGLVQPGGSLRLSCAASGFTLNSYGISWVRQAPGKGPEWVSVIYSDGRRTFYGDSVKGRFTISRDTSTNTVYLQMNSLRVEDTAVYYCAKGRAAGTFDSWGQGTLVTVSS
VL: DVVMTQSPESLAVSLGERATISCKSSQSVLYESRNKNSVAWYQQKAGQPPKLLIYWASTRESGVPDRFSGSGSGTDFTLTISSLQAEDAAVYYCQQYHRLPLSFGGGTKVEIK

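The parent was found by panning a naive human phage display library on the peptide. AAYL50 was designed without a model: most single CDR substitutions and a random sample of double and triple ones. AlphaSeq pools MATa yeast showing the antibodies with MATalpha yeast showing the peptide. The frequency of each diploid, read from paired DNA barcodes, reflects how well the two displayed proteins bind. Read counts were normalised to the haploid input and turned into Kd by a linear fit to BCL2-family pairs of known affinity, for each replicate. Each pool was mated in three replicate cultures.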

Variants are written as CDR1, CDR2 and CDR3 of the light chain (limits as in the source). Parent: KSSQSVLYESRNKNSVA, WASTRES, QQYHRLPLS.
Affinities are written as log10 Kd with Kd in nM; a lower number is a better binder.
A mean of the replicates is given; it leaves out those without a signal.
"ND" marks a missing value. The strain was present, yet no cells mated with the target were sequenced in that replicate, which points to weak or no binding.
Three control strains display no target. For library AAYL50, 18% of the pairings with them gave a signal, with a median of 4.19 and one signal in twenty below 2.99, so weak values seen in few replicates may be background. For each scFv, signals with the empty controls are counted beside the result, with their mean in brackets.
Parent in this assay: reference entry 0.65, copy in this library 1.68.

CDR-L1,CDR-L2,CDR-L3,"replicates, log10 nM","mean, log10 nM",control signals
KSSWSVLYENRNKNSVA,WASTQES,QQYHRLPLS,4.50 3.14 ND,3.82,1/9 (4.22)
KMSFSVLYESRNKNSVA,WASTRES,QQTHRLPLS,4.93 ND 5.07,5.00,6/9 (4.48)
KSSHSVLYESRNKNSVA,WKSTCES,QQYHRLPLS,ND ND ND,ND,0/9
KSLQSVFYESRNKNSVA,RASTRES,QQYHRLPLS,0.39 0.50 0.55,0.48,6/9 (4.51)
HSSQSVLYESRNKNSVA,WASTRES,QSYHRLGLS,ND ND ND,ND,1/9 (3.53)
KSSQDVLYESRNDRSVA,WASTRES,QQYHRLPLS,1.53 1.57 1.71,1.60,7/9 (5.03)
KSSQSVLYCSRNKTSVA,WNSTRES,QQYHRLPLS,6.62 ND ND,6.62,6/9 (4.44)
KSSQSVLYESRNKNSVA,WQSTAES,QQYHRLPFS,6.13 ND ND,6.13,1/9 (4.09)
KSSQSVLYEPRCKNSVA,WASTRES,QQCHRLPLS,0.94 1.03 0.76,0.91,0/9
KSSQSVLYESRMKNTVA,WASTRES,QQYTRLPLS,ND ND ND,ND,0/9
KVSQSVLYESRNKNSVA,WASTRPS,QQYHRLPLS,1.27 1.12 1.15,1.18,1/9 (2.40)
KSSQSVLYESRNKNSVA,WATTGES,WQYHRLPLS,ND ND ND,ND,1/9 (4.93)
KSSQSVLYEPRNKNSVA,WASTPES,QQYHRLWLS,1.28 1.24 1.27,1.26,0/9
KFSQSPLYESRNKNSVS,WASTRES,QQYHRLPLS,3.81 4.10 3.48,3.80,4/9 (4.32)
KHSQSVLYESRNKNSVA,WASTYES,QQYHRLPLS,ND ND ND,ND,1/9 (5.46)
KSSQSVLYESRNKNSVA,WASTRES,QQYHVQILS,0.96 1.20 1.10,1.09,2/9 (3.94)
KSSASVLYESRNKFSKA,WASTRES,QQYHRLPLS,ND ND 3.38,3.38,2/9 (3.87)
KSSQSVLYESRNKNRVA,WASTRES,NQYHRLPLL,ND ND ND,ND,1/9 (4.16)
KSSQSVLYESINKNSVA,WASTREQ,QQYRRLPLS,ND ND ND,ND,0/9
KSSQSVLYESRNKNSVA,WASHRES,QQYHRLPLW,4.20 3.11 4.16,3.82,4/9 (3.95)
KSSQSVLYEFRNKNSVA,WDSDRES,QQYHRLPLS,ND 3.05 ND,3.05,1/9 (4.24)
KSSQSVLYESRNRNSVA,WASTRES,QQYHRLPLS,0.67 1.00 0.90,0.86,2/9 (3.19)
KSSQSVLYKSRNKNSTA,WASTRES,QQYHRLPLR,ND 4.17 ND,4.17,1/9 (4.47)
KSSQSVLYESRNKNPVG,WASTRES,TQYHRLPLS,ND ND ND,ND,1/9 (3.01)
KGSQSVLYESRNKNSVD,WASTRES,QQYHRIPLS,ND ND ND,ND,1/9 (3.20)
NSSQSVLYESRNKNTVA,WASTRES,QQYWRLPLS,ND ND ND,ND,5/9 (4.39)
KSSWSVLYESRNNNSVA,WASTRES,QQYHRDPLS,0.97 1.18 1.17,1.11,5/9 (4.64)
KSSQIVLYESRNKNSVA,WAFTRES,QQYHRCPLS,ND ND ND,ND,0/9
KSSQSVLYESRNKNSVA,WASTRES,QQCHRLPLS,ND ND ND,ND,2/9 (4.58)
MSKQSVLYESRNKNSVA,WASTRES,QQYERLPLS,3.15 2.93 3.91,3.33,1/9 (3.71)
KSSQKVLYEQRNKNSVA,WLSTRES,QQYHRLPLS,ND 3.21 ND,3.21,0/9
KSSSSNLYESRNKNSVA,WALTRES,QQYHRLPLS,3.08 ND ND,3.08,2/9 (4.19)
KSAQSVLYESINKNSVA,WASTRES,QQKHRLPLS,ND ND ND,ND,2/9 (3.41)
KSSQSVLYESRNKETVA,WASTRES,QVYHRLPLS,ND 3.52 4.83,4.17,3/9 (4.77)
KSSQSLLYESRPKLSVA,WASTRES,QQYHRLPLS,3.00 2.79 3.21,3.00,0/9
KSSQSVLYESRNKNSVA,AALTRES,QQYSRLPLS,-0.03 0.26 0.04,0.09,2/9 (3.74)
KSSQSVLYESRNKNSVA,WASTRET,QQYHRLPLS,ND ND ND,ND,1/9 (3.56)
KSSQKVLYESRNKNSVA,TASTEES,QQYHRLPLS,3.82 5.03 ND,4.43,3/9 (4.07)
KSSQSVLYESRNKNISA,WASTRES,QQYHRNPLS,ND ND ND,ND,0/9
KSSQSVLYESRNFNGVA,WASTGES,QQYHRLPLS,ND ND ND,ND,1/9 (4.46)
KSGQCVYYESRNKNSVA,WASTRES,QQYHRLPLS,0.54 0.89 0.76,0.73,2/9 (4.00)
KSSQSVLYELRNKNSVA,WPSTRES,FQYHRLPLS,3.82 4.16 4.48,4.15,6/9 (4.61)
KSSQSVLWESRNKNSVK,WASTRES,QQYHRLPLW,6.00 4.33 ND,5.16,7/9 (4.97)
KSNQSVLYESRNKNSVA,WAKTRES,QQYHRLGLS,1.91 1.96 1.36,1.74,0/9
KSSQSVLYESRPKNSVA,WASTREP,QQYHDLPLS,ND ND ND,ND,0/9

The first 4 entries again:

{"CDR-L1": "KSSWSVLYENRNKNSVA", "CDR-L2": "WASTQES", "CDR-L3": "QQYHRLPLS", "replicates, log10 nM": "4.50 3.14 ND", "mean, log10 nM": "3.82", "control signals": "1/9 (4.22)"}
{"CDR-L1": "KMSFSVLYESRNKNSVA", "CDR-L2": "WASTRES", "CDR-L3": "QQTHRLPLS", "replicates, log10 nM": "4.93 ND 5.07", "mean, log10 nM": "5.00", "control signals": "6/9 (4.48)"}
{"CDR-L1": "KSSHSVLYESRNKNSVA", "CDR-L2": "WKSTCES", "CDR-L3": "QQYHRLPLS", "replicates, log10 nM": "ND ND ND", "mean, log10 nM": "ND", "control signals": "0/9"}
{"CDR-L1": "KSLQSVFYESRNKNSVA", "CDR-L2": "RASTRES", "CDR-L3": "QQYHRLPLS", "replicates, log10 nM": "0.39 0.50 0.55", "mean, log10 nM": "0.48", "control signals": "6/9 (4.51)"}